# scFv variants of Ab-14 (heavy chain) against a SARS-CoV-2 spike peptide

Data: MIT Lincoln Laboratory AlphaSeq set, Engelhart et al. 2022, doi:10.1038/s41597-022-01779-4, as distributed in FLAb.

Binding partner: SARS-CoV-2 spike HR2 peptide, sequence PDVDLGDISGINAS.

Parent: Ab-14, a human scFv built as VH, a 15-residue (Gly4Ser)3 linker, VL. Only the CDRs of the heavy chain vary.
VH: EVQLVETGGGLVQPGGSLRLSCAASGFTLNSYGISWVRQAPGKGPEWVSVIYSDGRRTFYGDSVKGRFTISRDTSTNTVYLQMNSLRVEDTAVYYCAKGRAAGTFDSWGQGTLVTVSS
VL: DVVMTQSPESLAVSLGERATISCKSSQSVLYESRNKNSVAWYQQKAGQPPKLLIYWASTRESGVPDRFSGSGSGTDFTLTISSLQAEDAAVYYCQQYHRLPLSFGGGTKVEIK

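Phage display of a naive human antibody library on the peptide gave the parent. AAYL49 was designed without a model: most single CDR substitutions and a random sample of double and triple ones. In AlphaSeq, yeast of one mating type display the scFv and yeast of the other type display the target. Binding brings cells together so that they mate, and sequencing counts the barcode pairs among the diploids. The ratio of observed to expected reads was calibrated, replicate by replicate, on BCL2-family standards whose Kd was known from biolayer interferometry. There are three technical replicates.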

Each variant is given by its three heavy chain CDRs, as the data file delimits them; those of the parent are GFTLNSYGIS, VIYSDGRRTFYGDSVK, GRAAGTFDS.
Numbers give log10(Kd / nM), so 0 is 1 nM and 3 is 1 µM. Smaller is tighter.
"n.d." marks a missing value. The strain was present, yet no cells mated with the target were sequenced in that replicate, which points to weak or no binding.
Parent in this assay: reference entry 0.65, copy in this library 4.11 (one replicate of three).

| CDR-H1 | CDR-H2 | CDR-H3 | log10 Kd, replicates | empty controls |
|---|---|---|---|---|
| GFTLNLYGIS | VSYSDGRRTFYGDIVK | GRAAGTFDS | 4.00 / 3.64 / n.d. | 2/9 (4.50) |
| GFTLNSPGIS | YIYSDKRRTFYGDSVK | GRAAGTFDS | 3.79 / n.d. / n.d. | 2/9 (4.55) |
| GFTLESYGIS | VIYSDGRRTQYGDSVR | GRAAGTFDS | 0.95 / 1.15 / 1.16 | 1/9 (4.64) |
| GFTLNSYGIS | VIYSDGDRTNYGDKVK | GRAAGTFDS | 2.66 / 1.89 / 2.98 | 0/9 |
| YFKLNSYGIS | VIWSDGRRTFYGDSVK | GRAAGTFDS | n.d. / n.d. / n.d. | 1/9 (3.02) |
| GFTLNSRYIS | VIYSDGRRTFYGDSVK | GRAAETFDS | n.d. / n.d. / n.d. | 0/9 |
| GFTLNSYGIS | VYYSDGRRTFYGDSVK | GRAYGTYDS | n.d. / n.d. / 4.85 | 0/9 |
| MFTLNSYGIS | VIYSDGRRTFYGDAVK | GNAAGTFDS | 2.85 / n.d. / 2.65 | 2/9 (4.08) |
| GTTLNSYGIS | VIYSDGRRTFYGDSVL | GRAAGTFWS | 3.23 / 2.73 / 3.20 | 1/9 (3.88) |
| GFNLNSYGIS | VIYSDGRRTPYGDLVK | GRAAGTFDS | n.d. / n.d. / 4.48 | 1/9 (2.44) |
| GFTCNSYGIS | VIYSGGRRQFYGDSVK | GRAAGTFDS | n.d. / n.d. / n.d. | 3/9 (4.26) |
| GFTLNSYGDS | VIYSDARRTFYGDSVK | GRAAGTFDP | n.d. / n.d. / n.d. | 1/9 (4.62) |
| GFTLNSYGIS | VIYSDGRRTFYGCSVK | GEAAGTIDS | n.d. / 2.13 / n.d. | 2/9 (4.24) |
| GFTLDSYGDS | VDYSDGRRTFYGDSVK | GRAAGTFDS | n.d. / n.d. / n.d. | 4/9 (4.94) |
| GFTLNSYGIS | VIYSDGRLTFYGDSVK | DRAAGTRDS | n.d. / n.d. / 4.30 | 3/9 (3.94) |
| GFTLNSSGIS | VIYSDGRRTFYGDSVK | QRADGTFDS | 4.33 / 4.21 / 5.75 | 1/9 (3.89) |
| CFTLNSYGIS | VIYSDGRRTFYEDSVK | GRAAGTFDS | 1.94 / 2.33 / 2.92 | 3/9 (3.94) |
| GFTLNSYGIS | RIYSDGRRTFYGDSVK | GDAAGTFDD | n.d. / n.d. / n.d. | 1/9 (3.98) |
| GFTDNSYGIS | PIYSDGRRTFYGDSVK | QRAAGTFDS | 3.84 / n.d. / 4.30 | 0/9 |
| CFTLNSYGIS | VITGDGRRTFYGDSVK | GRAAGTFDS | 3.58 / 4.31 / 5.24 | 0/9 |
| GFTLMSYGIS | VIYSDGKRTFYGDLVK | GRAAGTFDS | 1.80 / 2.38 / 1.49 | 0/9 |
| GFTLNAYGIS | VIYSDGRRTFEGDAVK | GRAAGTFDS | 3.32 / 3.24 / 3.24 | 3/9 (4.47) |
| GFTLNSYGIS | VIYPDGRRTFCGDSVK | GRAANTFDS | 5.65 / n.d. / 3.49 | 0/9 |
| GMTLNSYGIS | VIYSDGRQTFYGNSVK | GRAAGTFDS | n.d. / n.d. / n.d. | 0/9 |
| GFTLYSYGIS | VIYHDGRRTFYGDSVK | GRAAGTFDS | 2.31 / 2.24 / 2.09 | 1/9 (3.37) |
| GFTDNSYGIS | VIYSDGRPTFYGDSVK | GRAAGTFDS | 4.39 / n.d. / 4.54 | 3/9 (3.81) |
| GFTLNSYGIS | VIYTDRRRTFYGDGVK | GRAAGTFDS | n.d. / 3.40 / n.d. | 0/9 |
| GFTLNSYGIS | VRYSDGRRTFGGDSVK | GRAKGTFDS | n.d. / 3.43 / n.d. | 1/9 (3.67) |
| GFTLNDIGIS | VIYSDGRRTFYGDHVK | GRAAGTFDS | 2.51 / 2.09 / 3.60 | 3/9 (3.17) |
| GFTLNLYGIQ | VIYSDGRETFYGDSVK | GRAAGTFDS | n.d. / n.d. / n.d. | 3/9 (3.91) |
| GFTLWSYGIP | VIYSYGRRTFYGDSVK | GRAAGTFDS | n.d. / n.d. / n.d. | 1/9 (2.91) |
| GFTLNSYGIS | VIYSCGRRTTYGDSWK | GRAAGTFDS | n.d. / n.d. / 4.83 | 4/9 (4.33) |
| GFTLNSYGIS | VIYSDGRRTFYGDSQK | GSAAGTNDS | n.d. / n.d. / n.d. | 0/9 |
| GFTLNSYGIS | CIYSDGRRTFYGDSVK | GRAAQWFDS | n.d. / 4.77 / n.d. | 4/9 (4.23) |
| GFTLNSYGIS | VIYSDGRRTFYTDSVK | GRAAFTFDS | 0.67 / 0.88 / 0.85 | 3/9 (3.94) |
| GFTLNSYGIS | VIYSDGRKTFYGDSVD | GRAKGTFDS | 5.26 / n.d. / n.d. | 1/9 (3.28) |
| GFTLFSYGIS | VIYSDGRRTFHGDEVK | GRAAGTFDS | n.d. / 3.98 / n.d. | 1/9 (3.49) |
| GPTLNSYGIS | VIYSDGRSTFCGDSVK | GRAAGTFDS | 3.98 / 3.40 / 6.10 | 1/9 (3.48) |
| GFTVNSYGIS | VIYSDGRRTFYGDSVV | GRAAQTFDS | n.d. / 3.83 / n.d. | 1/9 (4.31) |
| GITINYYGIS | VIYSDGRRTFYGDSVK | GRAAGTFDS | n.d. / n.d. / n.d. | 1/9 (3.65) |

Three control strains display no target. For library AAYL49, 15% of the pairings with them gave a signal, with a median of 4.06 and one signal in twenty below 2.83, so weak values seen in few replicates may be background. For each scFv, signals with the empty controls are counted beside the result, with their mean in brackets.